Data from PMC12582325 (Proceedings of the National Academy of Sciences of the …, 2025).
Several values for one entry are separate records, joined by “and”; a condition that tells them apart may be missing. Equal values may be shown once. Read-outs that look alike come from different tables or passages of the source.

Experiments:
Bc.Ste2 [1] = type: cell-based, Botrytis cinerea
Fo.Ste2 [2] = type: cell-based, Fusarium oxysporum
Fo.Ste2 [3] = type: cell-based, Fusarium oxysporum; remark: listed apart in the source
Bc.Ste2 [4] = type: cell-based, Botrytis cinerea; remark: listed apart in the source
[5] = tested on: empty (strain lacking a GPCR); type: cell-based, Saccharomyces cerevisiae; settings: Fig. 1D mating matrix; pheromone secreted by MATa strain, MATα strain lacking a GPCR (empty); deep well plate, 20 h coculture
Bb.Ste2 [6] = type: cell-based, Beauveria bassiana; settings: for Diploid frequency (%): 20 h coculture; for diploid frequency (%) / average (diploid colonies): GPCR strain GEN47 HIS; for average (diploid colonies): dilution 500, mean of Rep1-3
Bb.Ste2 [7] = type: cell-based, Beauveria bassiana
Nc Ste2 GPCR = type: cell-based, Neurospora crassa
Ca.Ste2 = type: cell-based, Candida albicans
Sc Ste2 = target: T1, Sc Ste2 (Saccharomyces cerevisiae, UniProt D6VTK4); type: cell-based
T1 construct: The native Sc system and an empty construct were added as positive and negative controls; endogenous in cells; host or cells: Saccharomyces cerevisiae wild-type control strains GEN18 (MATa) and GEN27 (MATα)
T1 sequence (D6VTK4 1-431): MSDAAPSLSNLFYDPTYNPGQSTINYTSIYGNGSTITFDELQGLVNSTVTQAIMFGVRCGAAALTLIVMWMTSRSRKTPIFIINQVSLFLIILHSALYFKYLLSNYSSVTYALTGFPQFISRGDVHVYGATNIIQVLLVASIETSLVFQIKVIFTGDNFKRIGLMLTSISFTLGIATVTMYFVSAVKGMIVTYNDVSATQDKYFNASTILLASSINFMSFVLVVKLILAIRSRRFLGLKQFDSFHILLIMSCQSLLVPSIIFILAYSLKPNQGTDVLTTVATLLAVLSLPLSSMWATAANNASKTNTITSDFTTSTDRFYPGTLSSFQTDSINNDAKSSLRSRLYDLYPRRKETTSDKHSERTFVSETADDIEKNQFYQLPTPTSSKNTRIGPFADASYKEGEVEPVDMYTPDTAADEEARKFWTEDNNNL

Fg.Ste2 [8] = type: cell-based, Fusarium graminearum; settings: for Diploid frequency (%): 20 h coculture; for diploid frequency (%) / average (diploid colonies): GPCR strain GEN37 HIS; for average (diploid colonies): dilution 500, mean of Rep1-3
Fg.Ste2 [9] = type: cell-based, Fusarium graminearum; settings: Fg.Ste2 biosensor CPK366; 10 μM synthetic alpha pheromone; normalized to yEGFP background (receptor without pheromone); four biological replicates; Fig. 1E
Mo Ste2 GPCR = type: cell-based, Magnaporthe oryzae; settings: Fig. 1D mating matrix; pheromone secreted by MATa strain, GPCR in MATα strain; deep well plate, 20 h coculture; three technical plating replicates
Hj Ste2 GPCR (Hj.Hpr2) = type: cell-based, Hypocrea jecorina
[10] = Fig. 1D mating matrix, pheromone secreted by MATa strain, GPCR in MATα strain, deep well plate, three technical plating replicates
[11] = Fig. 1F validation in culture tubes, secreted pheromone, three biological and three technical replicates

N=C(N)NCCC[C@H](NC(=O)CNC(=O)[C@H](CS)NC(=O)[C@@H](N)Cc1c[nH]c2ccccc12)C(=O)N1CCC[C@H]1C(=O)NCC(=O)N[C@@H](CCC(N)=O)C(=O)N1CCC[C@H]1C(=O)N[C@@H](CS)C(=O)O [Bc]
Diploid frequency (%) (Bc.Ste2 [1]): 9.0% and 1.9% | diploid frequency (%) (Bc.Ste2 [1]): 11.02% and 5.15% and 10.94% | Fold change yEGFP (Fo.Ste2 [2]): 1 | Diploid frequency (%) (Fo.Ste2 [3]): 0.0% | average (diploid colonies) (Fo.Ste2 [3]): 0 | diploid frequency (%) (Fo.Ste2 [3]): 0% | Bc.Ste2 + pheromones, biosensor response, group mean (Bc.Ste2 [4]): 134.8 | Fold change yEGFP (Bc.Ste2 [4]): 154 | Normalized over control (Bc.Ste2 [4]): 115.60 and 115.12 and 113.51 and 110.13 | logEC50 (Bc.Ste2 [4]): -9.689 | Sup.Fig.3B Bc.Ste2 biosensor response, group mean (Bc.Ste2 [4]; 0.0005 μM): 897250 | Diploid frequency (%) [5]: 0.1% | Diploid frequency (%) (Bb.Ste2 [6]; [10]): 0.0% | Diploid frequency (%) (Bb.Ste2 [6]; [11]): 0.1% | diploid frequency (%) (Bb.Ste2 [6]; co-culture replicate 1): 0.2% | average (diploid colonies) (Bb.Ste2 [6]; co-culture replicate 1): 1 | diploid frequency (%) (Bb.Ste2 [6]; co-culture replicate 2): 0.07% | average (diploid colonies) (Bb.Ste2 [6]; co-culture replicate 2): 0.33 | diploid frequency (%) (Bb.Ste2 [6]; co-culture replicate 3): 0.07% | average (diploid colonies) (Bb.Ste2 [6]; co-culture replicate 3): 0.33 | Fold change yEGFP (Bb.Ste2 [7]): 1 | Diploid frequency (%) (Nc Ste2 GPCR): 0.0% | Diploid frequency (%) (Ca.Ste2): 0.0% | Diploid frequency (%) (Sc Ste2): 0.0% | Diploid frequency (%) (Fg.Ste2 [8]; [10]): 0.0% | Diploid frequency (%) (Fg.Ste2 [8]; [11]): 0.0% | diploid frequency (%) (Fg.Ste2 [8]; co-culture replicate 1): 0% | average (diploid colonies) (Fg.Ste2 [8]; co-culture replicate 1): 0 | diploid frequency (%) (Fg.Ste2 [8]; co-culture replicate 2): 0% | average (diploid colonies) (Fg.Ste2 [8]; co-culture replicate 2): 0 | diploid frequency (%) (Fg.Ste2 [8]; co-culture replicate 3): 0% | average (diploid colonies) (Fg.Ste2 [8]; co-culture replicate 3): 0 | Fold change yEGFP (Fg.Ste2 [9]): 1 | Diploid frequency (%) (Mo Ste2 GPCR): 0.2% | Diploid frequency (%) (Hj Ste2 GPCR (Hj.Hpr2)): 0.0%
